# Experimental data taken from patent publication US7576102B2, “Biaryl substituted nitrogen containing heterocycle inhibitors of LTA4H for treating inflammation” (deCODE genetics ehf, priority 2005, dated 2009).
# Sequences of proteins named here, by UniProt entry; tags and fusion partners are left off.
# UniProt P09960, whole entry: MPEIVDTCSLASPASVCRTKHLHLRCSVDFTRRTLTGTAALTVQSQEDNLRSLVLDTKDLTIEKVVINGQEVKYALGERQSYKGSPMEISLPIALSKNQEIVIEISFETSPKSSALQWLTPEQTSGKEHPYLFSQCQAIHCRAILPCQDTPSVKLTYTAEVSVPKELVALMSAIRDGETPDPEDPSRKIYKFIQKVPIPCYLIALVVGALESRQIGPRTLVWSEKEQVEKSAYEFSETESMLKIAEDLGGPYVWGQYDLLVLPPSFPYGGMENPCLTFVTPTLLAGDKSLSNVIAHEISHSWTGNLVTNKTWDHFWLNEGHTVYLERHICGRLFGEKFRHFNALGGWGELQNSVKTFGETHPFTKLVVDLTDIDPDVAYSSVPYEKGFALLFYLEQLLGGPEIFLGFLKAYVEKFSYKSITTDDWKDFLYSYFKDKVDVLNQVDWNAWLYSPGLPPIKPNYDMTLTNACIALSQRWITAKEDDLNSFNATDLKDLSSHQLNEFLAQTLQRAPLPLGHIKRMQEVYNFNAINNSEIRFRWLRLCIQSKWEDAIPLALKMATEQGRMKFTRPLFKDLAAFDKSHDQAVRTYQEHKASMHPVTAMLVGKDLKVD
# Biological target: human LTA4 hydrolase (Homo sapiens, UniProt P09960)
# Test: In vitro assay testing inhibitory activity against purified recombinant human LTA4 hydrolase
# Settings: read-out: IC50(μM) (hLTA4H); 200 nM recombinant enzyme, 2 μM LTA4, LTB4 by LC-MS/MS
# From the text: (1) In vitro Assay Testing Inhibitory Activity Against Purified Recombinant Human LTA4 Hydroase:
# A human LTA4 hydrolase full-length cDNA clone (NM_000895) was purchased from OriGene Technologies (Rockville, Md.). The gene was amplified by polmerase chain reaction and transferred via pDONR201 into the bacterial expression vector pDEST17 by recombination (both plasmids from Invitrogen, Carlsbad, Calif.). The resulting construct was transformed into Escherichia coli BL21-AI (Invitrogen), and expression was induced by chemical induction with arabinose. […]
# Immediately before the assay, LTA4 was diluted to a concentration of 10 μM in assay buffer (without DMSO) and added to the reaction mixture to a final concentration of 2 μM to initiate the enzyme reaction. […] LTB4 formed was measured by LC-MS/MS using LTB4-d4 as an internal standard and an external LTB4 standard (Biomol) as reference. Briefly, the analyte was separated from LTB4 isomers formed by spontaneous hydrolysis of LTA4 using isocratic elution (modified protocol from Mueller et al. (1996), J. Biol. Chem. 271, 24345-24348) on a HPLC system (Waters, Milford, Mass.) and analyzed on a tandem quadrupole mass spectrometer (Waters). […] Based on the amounts of LTB4 found at each inhibitor concentration, a dose-response curve was fitted to the data and an IC50 value was calculated.
structure (smiles),measurement,value
NC(=O)CCCN1CC[C@@H](Oc2ccc(Cc3ccccc3)cc2)C1,IC50,< 5 µM
